Sequences of proteins named here, by UniProt entry; tags and fusion partners are left off. Residues count along the entry.
UniProt P05067, 672-711: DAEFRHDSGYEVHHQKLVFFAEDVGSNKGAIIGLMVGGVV

According to patent US6689753B1, “β sheet breaker peptide analogs that inhibit β pleated sheet formation in amyloid β-peptide” (Axonyx, Inc., priority 1999, dated 2004):

Target: Aβ1-40 (Homo sapiens, UniProt P05067)
Experiment: In vitro amyloid formation assay, thioflavine T fluorescence
Assay type: biochemical
Conditions: Aβ incubated with peptide, ThT fluorescence, FIG. 5a

Substance: Aβ1-16: short Aβ fragment (DAEFRHDSGYEVHHQK; Amyloid-beta protein 42; UniProt P05067 672-687, looked up, fragment)
- activity in inhibiting amyloid formation (fibrillogenesis): no effect on fibrillogenesis or slightly increased amyloid formation
